Assay results reported in patent publication US10570458B2, “Methods for diagnosis, prognosis and treatment of primary and metastatic basal-like breast cancer and other cancer types” (ONCONOSTIC TECHNOLOGIES, INC., priority 2009, dated 2020).

Test system: patients with primary infiltrating ductal breast cancer
Assay: Univariate Cox regression of 5 year overall survival in patient cohort
Format: in vivo, human
Experimental: Review of a prospectively acquired institutional database identified 904 patients with primary infiltrating ductal breast cancer diagnosed between Jan. 1, 1995 and Dec. 31, 2004.
All statistical analyses were performed using SAS (version 9.1.3, SAS, Cary, N.C.). Criteria used to determine positive or negative status of a specific biomarker were determined prior to performing any statistical analysis. Analysis of categorical variables was performed using χ^2 test and Fisher's exact test. The Mann-Whitney U test was employed to compare non-normal continuos variables. For survival analysis, overall survival (OS) was the outcome measure used. Survival time was calculated as the date of diagnosis until the date of death. Survival times were censored if the patient was still alive on Oct. 15, 2009 (the last date of update of the database). Univariate survival curves were generated by the Kaplan-Meier method (Bland et al. 1998) and significance determined using the log-rank test (Bland J M, Altman D G. The logrank test. BMJ 2004; 328:1073). Multivariate analysis was performed using Cox's proportional hazards analysis. For purposes of evaluating the prognostic significance of each of the above IHC biomarker panel definitions of BLBC, three separate models were constructed for the 3-biomarker, 5-biomarker and 4-biomarker definitions of BLBC. […]

trastuzumab [Herceptin]
Hazard ratio (95% CI), 5 year overall survival (univariate Cox regression, therapy yes vs. no, N 688): 1.275 (0.462 3.524) | predictor of overall survival (univariate analysis, adjuvant treatment variable): not significant predictors of overall survival
